Test results published in ChEMBL document CHEMBL4431321, “Profiling of Flavonol Derivatives for the Development of Antitrypanosomatidic Drugs” (J Med Chem, 2016).

Columns and labels:
[1] = Selectivity index, ratio of IC50 for human DHFR to IC50 for Trypanosoma brucei PTR1
[2] = Selectivity index, ratio of IC50 for human ERG to IC50 for Trypanosoma brucei PTR1
[3] = Selectivity index, ratio of IC50 for human thymidylate synthase to IC50 for Trypanosoma brucei PTR1

O=c1c(O)c(-c2cccc(O)c2)oc2ccc(O)cc12
Ratio IC50 [1]: > 10 | Ratio IC50 [2]: > 20

COc1cc(-c2oc3cc(O)cc(O)c3c(=O)c2O)ccc1O [ISORHAMNETIN]
Ratio IC50 [3]: > 35 | Ratio IC50 [1]: 36
